Reference: publication PMC6299426 (Theranostics, 2018)

Assay: Identification of albiflorin metabolites in vivo
Parameters: species or system ICR mice
Settings: after albiflorin administration
In short: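 Fecal metabolites were profiled by LC/MSn-IT-TOF. Feces were extracted with methanol (1/10, g/mL) by ultrasound for 30 min and centrifuged 10 min at 21100 ×g; 20 μL of supernatant was injected. Separation used a C18 column (250 × 4.6 mm, 5 μm) with a water/0.5% formic acid–methanol gradient at 0.8 mL/min over 45 min. Brain was sampled 2 h after oral dosing at 14 mg/kg, with analytes quantified by HPLC-MS/MS.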

In the case of glutathione-conjugated albiflorin [M4], the “Where the metabolite was detected in mice” value was “only detected in the feces”.
